# Antibody variant affinities, Ab-14 light chain, assay B

Source: Li et al. 2023 (doi:10.1038/s41467-023-39022-2), MIT Lincoln Laboratory and A-Alpha Bio; data file from the FLAb repository.

Binding partner: SARS-CoV-2 spike HR2 peptide, sequence PDVDLGDISGINAS.

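Phage display of a naive human antibody library on the peptide gave the parent. These sequences belong to a second round, designed from the earlier measurements on random variants of the parent. Several design methods are mixed in this list. Affinity was read by AlphaSeq, a pooled yeast mating assay with surface-displayed partners. Mating (16 h, 30 °C) was followed by selection of diploids and sequencing of their barcodes. A regression on co-assayed BCL2-family reference pairs converts the normalised counts of each replicate to an apparent Kd. The assay was run in six technical replicates.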

Parent scFv Ab-14: VH joined to VL by three GGGGS repeats. Changes lie in the light chain CDRs alone.
VH: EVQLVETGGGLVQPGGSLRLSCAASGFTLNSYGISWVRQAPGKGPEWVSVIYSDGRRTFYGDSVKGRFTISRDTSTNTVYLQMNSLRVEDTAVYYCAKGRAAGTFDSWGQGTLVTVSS
VL: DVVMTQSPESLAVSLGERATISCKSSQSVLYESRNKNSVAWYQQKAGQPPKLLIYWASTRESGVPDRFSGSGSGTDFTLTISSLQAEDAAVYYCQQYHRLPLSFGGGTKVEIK

The parent's light chain CDRs are KSSQSVLYESRNKNSVA, WASTRES, QQYHRLPLS; each variant's own CDRs replace them letter for letter.
This list holds designs with more than six substitutions.
Each Kd is an estimate from the mating assay, the geometric mean of the replicates in which the pair was seen; lower is stronger.
A pair that was not seen in any replicate is written "no signal"; this usually means weak binding, but a binder can also be missed.
Entries are sorted by rising average, undetected variants last.
Of ten entries with the parent sequence, four were seen in most replicates (averages 2.2 nM to 240 nM), three in one and three in none, so single entries are noisy.
As a blank, each scFv also met three strains without target: over all light chain designs, 4% of these pairings were detected, typically at 430 nM and seldom below 38 nM.
A sequence measured in both rounds can read differently, since the two assays cover different ranges.
The authors averaged sequences with at least three values out of six and counted those with two or fewer as poor binders.

KLPQWDLYEGRNKNSVA / SASTRSD / QQYHRLPLS: 500 pM (6 of 6 replicates).
KLSQSVWMESRNKWNVA / NASYRES / QQYHRLPLS: 680 pM (6 of 6 replicates).
MISDLTMAGSRNKNSVA / DLSTRGS / QQYHRLPLS: 890 pM (6 of 6 replicates).
ALGDVTRMESNKKDSIA / DMSNRES / QQYHRLPLS: 1.0 nM (6 of 6 replicates).
KLSQEMEYESRNKNSVA / QASERES / QDYHRLPLQ: 1.1 nM (6 of 6 replicates).
IISQVDGYLSRNTNSIA / DQSTRGS / QQYDRLPLS: 1.4 nM (6 of 6 replicates).
KIGMTLNELMIKKNNVA / DLVMREN / QQYHRLPLS: 1.4 nM (6 of 6 replicates).
KISQAVNYLQRVMNSVA / DNSTRES / QQYFRLPLS: 1.7 nM (6 of 6 replicates).
KLSGSVEMLSRNVNNVA / EASTREL / QAYHRLPLS: 1.7 nM (6 of 6 replicates).
KLSMSVMMWSRNTNSVA / SANTREE / QQYHRLPLS: 1.9 nM (6 of 6 replicates).
SVTRETDGNGLKWNSVA / DAAEAMT / QQYFRLPLT: 2.0 nM (6 of 6 replicates).
HISPSFMVESRLKNSVA / QTETREE / QQYDRLPLS: 2.2 nM (6 of 6 replicates).
MVYEATMMGGTARNSIA / NAQMRPD / QQYHRLPLI: 2.3 nM (6 of 6 replicates).
KISQMVKVGSTHSNSIA / EEETRAK / QQYHRLPLA: 2.8 nM (6 of 6 replicates).
KISGMYQKESKNKNSIA / EMVTRES / QQYDRLPLS: 4.1 nM (6 of 6 replicates).
KLSLSVELESRLKNSVA / HASTREW / QQYHRLPLS: 4.6 nM (6 of 6 replicates).
TISQVMNTLTRHGNNVA / DLAEREQ / QQYFRLPLS: 4.7 nM (6 of 6 replicates).
MISQVMNTLTRIGNNVA / DLAEREN / QQYFRLPLS: 4.7 nM (6 of 6 replicates).
KISQMVRVGSTHVNSIA / EETTRAK / QQYHRLPLF: 5.0 nM (6 of 6 replicates).
KWQNDSLFMGQYMNNIA / NTSLRTE / QQYYQLPLT: 5.0 nM (6 of 6 replicates).
IISQSMLYESATHNSIA / QQSTREE / QQYHHLPLS: 7.5 nM (6 of 6 replicates).
MLTIEGDETHEKAFSIA / NVTNKAY / QQYARLPLT: 8.3 nM (6 of 6 replicates).
TIDDEMPNHGFHWNSIA / GVSTRKQ / QQYDRLPLS: 9.0 nM (6 of 6 replicates).
KLGQMTAIESRNNNSVA / QMDTREK / QQYDRLPLS: 9.6 nM (6 of 6 replicates).
TISSSAQQESHNKNSVA / DLSVRGS / QQYHRLPLS: 9.8 nM (6 of 6 replicates).
NLMSHQGRYDVWKYSIA / EASIRAS / QQYFRLPLA: 12 nM (6 of 6 replicates).
MFSQSVMYGSFMRNSVA / QTSTRES / QQYDRMPLS: 16 nM (6 of 6 replicates).
TISGVMQQMTHSKNNVA / EVSMRLD / QQYFRLPLE: 35 nM (6 of 6 replicates).
TIQQMMSLFSQTINNVA / EVSTREK / QQYDRLPLV: 44 nM (4 of 6 replicates).
HISMSMNYLSRNKNSIA / EESTRED / QQYARLPLS: 75 nM (6 of 6 replicates).
TISQMTSLFSQSINNVA / EVSMREE / QQYDRLPLT: 80 nM (3 of 6 replicates).
KLSVSWLFEQIEKNSVA / ERSTRES / QDYNRLPLS: 82 nM (5 of 6 replicates).
KLSVSYLFESQEKNSIA / ENSTRES / QHYHRLPLS: 250 nM (1 of 6 replicates).
RYQMDDNSGEGMRNNVA / DGAEVRM / QQYARLPLW: 260 nM (4 of 6 replicates).
HVANYPENFRSAKDNIA / DDSATTS / QQYDRLPLA: 560 nM (1 of 6 replicates).
KLDMSLNYESVALDSIA / EEVMHTA / QQYDRLPLF: no signal (0 of 6 replicates).
QMQLNQIEGNQHQNSIA / GESEADM / QHYARLPLT: no signal (0 of 6 replicates).
KFMISLEYQMAEQNNIA / HGEISTV / QQYSRLPIY: no signal (0 of 6 replicates).
IVSQLMIWGMHLKNSIA / EAQTRIN / QQYDRLPLM: no signal (0 of 6 replicates).

Excerpt, the first 3 entries:

CDR-L1	CDR-L2	CDR-L3	Kd (apparent)	seen in
KLPQWDLYEGRNKNSVA	SASTRSD	QQYHRLPLS	500 pM	6 of 6
KLSQSVWMESRNKWNVA	NASYRES	QQYHRLPLS	680 pM	6 of 6
MISDLTMAGSRNKNSVA	DLSTRGS	QQYHRLPLS	890 pM	6 of 6